Laboratory results published in publication PMC4789278, “Pharmacological inhibition of LSD1 for the treatment of MLL-rearranged leukemia” (Journal of Hematology & Oncology, 2016).

system: MV4-11 leukemia cells; assay: Antiproliferation assay (XTT), MV4-11; format: cell-based, human; details: read-out: MV4-11 EC50 (Table S1)

First: NC1CC1c1ccc(Br)cc1 (centres unmarked)
Second: NNC1CC1c1ccc(Br)cc1 (centres unmarked)
The EC50 of the first is higher: over 50 µM for the first, 42 µM for the second. The second is the more potent here.

Compared with `O=C(CNC1CC1c1ccccc1)N1CCNCC1` (centres unmarked), `O=C(CNC1CC1c1ccccc1)N1CCCCC1` (centres unmarked) is 8.9-fold higher in EC50: 0.28 µM for the first, 2.5 µM for the second. The first is the more potent here.

Going from `O=C(CNC1CC1c1ccc(Br)cc1)N1CCNCC1` (centres unmarked) to `CN1CCN(C(=O)CNC2CC2c2cccc(Br)c2)CC1` (centres unmarked), the EC50 rises from 0.1 µM to 25 µM (250-fold).

Going from `Brc1ccc(C2CC2NCc2ccccc2)cc1` (centres unmarked) to `NC1CC1c1ccc(OCc2ccccc2)cc1` (centres unmarked), the EC50 falls from 25 µM to 6 µM (4.2-fold). The second is the more potent here.

First: CC(=O)NC1CC1c1ccc(Br)cc1 (centres unmarked)
Second: c1ccc(C2CC2NCC2CCNCC2)cc1 (centres unmarked)
The EC50 of the first is 310-fold higher: 40 µM for the first, 0.13 µM for the second. The second is the more potent here.

molecular target: recombinant human LSD1 (Homo sapiens, UniProt O60341); assay: LSD1 enzyme inhibition assay (HRP/Amplex red); format: biochemical; details: read-out: LSD1 IC50 (Table S1)

Work on `NNC1CC1c1ccc(Br)cc1` (centres unmarked) yielded an IC50 of 5.8 µM.
